Assay results published in publication PMC10278182.
pKd: −log10 of the molar value.

Key:
[1] = target: O(PA)6 nanopore sensor (adaptor O - MLL4Win - (PA)6 tether - tFhuA) (human | Escherichia coli); assay: single-channel electrical recording (resistive-pulse technique); nanopore sensor in a planar lipid bilayer, WDR5 added to the cis side; 300 mM KCl, 20 mM Tris-HCl, 1 mM TCEP, pH 7.5; -20 mV; 23 ± 1 °C; capture durations follow a three-exponential distribution (short-, medium-, long-lived events); rate constants from linear fits of 1/τon and 1/τoff versus [WDR5]
[2] = target: O(GGS)2 nanopore sensor (adaptor O - MLL4Win - (GGS)2 tether - tFhuA) (human | Escherichia coli); assay: as above
[3] = target: O(GGS)4 nanopore sensor (adaptor O - MLL4Win - (GGS)4 tether - tFhuA) (human | Escherichia coli); assay: as above
[4] = target: O(PA)3 nanopore sensor (adaptor O - MLL4Win - (PA)3 tether - tFhuA) (human | Escherichia coli); assay: as above
[5] = target: O(GGS)5 nanopore sensor (adaptor O - MLL4Win - (GGS)5 tether - tFhuA) (human | Escherichia coli); assay: BLI; ND-BLI: biotinylated nanodiscs (15 nM) with reconstituted nanopores loaded on streptavidin (SAX) sensors; WDR5 in solution, 1 to 18 μM; 300 mM KCl, 20 mM Tris-HCl, 1 mg/mL BSA, 1 mM TCEP, pH 7.5; 24 °C; empty nanodiscs as reference
[6] = target: O(PA)6 nanopore sensor (adaptor O - MLL4Win - (PA)6 tether - tFhuA) (human | Escherichia coli); assay: as above
[7] = target: O(GGS)4 nanopore sensor (adaptor O - MLL4Win - (GGS)4 tether - tFhuA) (human | Escherichia coli); assay: as above
[8] = target: O(PA)8 nanopore sensor (adaptor O - MLL4Win - (PA)8 tether - tFhuA) (human | Escherichia coli); assay: as above

- KD-3 (long-lived events) [1]: 103 µM
- koff-1 (short-lived events) [1]: 170 s⁻¹
- koff-2 (medium-lived events) [1]: 18 s⁻¹
- koff-3 (long-lived events) [1]: 0.8 s⁻¹
- kon-1 (short-lived events) [1]: 160000 M⁻¹ s⁻¹
- kon-2 (medium-lived events) [1]: 51000 M⁻¹ s⁻¹
- kon-3 (long-lived events) [1]: 8000 M⁻¹ s⁻¹
- KD-3 (long-lived events) [2]: 21 µM
- koff of the long-lived events (printed as koff in Table 2) [2]: 0.78 s⁻¹
- koff-1 (short-lived events) [2]: 88 s⁻¹
- koff-2 (medium-lived events) [2]: 9.4 s⁻¹
- koff-3 (long-lived events) [2]: 0.77 s⁻¹
- kon of the long-lived events (printed as kon in Table 2) [2]: 36000 M⁻¹ s⁻¹
- kon-1 (short-lived events) [2]: 110000 M⁻¹ s⁻¹
- kon-2 (medium-lived events) [2]: 69000 M⁻¹ s⁻¹
- kon-3 (long-lived events) [2]: 35000 M⁻¹ s⁻¹
- KD-3 (long-lived events) [3]: 20 µM
- koff-1 (short-lived events) [3]: 86 s⁻¹
- koff-2 (medium-lived events) [3]: 9.2 s⁻¹
- koff-3 (long-lived events) [3]: 0.78 s⁻¹
- kon-1 (short-lived events) [3]: 140000 M⁻¹ s⁻¹
- kon-2 (medium-lived events) [3]: 79000 M⁻¹ s⁻¹
- kon-3 (long-lived events) [3]: 40000 M⁻¹ s⁻¹
- koff-1 (short-lived events) [4]: 220 s⁻¹
- koff-2 (medium-lived events) [4]: 35 s⁻¹
- koff-3 (long-lived events) [4]: 0.79 s⁻¹
- kon-1 (short-lived events) [4]: 29000 M⁻¹ s⁻¹
- kon-2 (medium-lived events) [4]: 10000 M⁻¹ s⁻¹
- kon-3 (long-lived events) [4]: 2000 M⁻¹ s⁻¹
- pKd [5]: 6.70
- koff [5]: 0.0037 s⁻¹
- kon [5]: 19000 M⁻¹ s⁻¹
- pKd [6]: 5.96
- koff [6]: 0.012 s⁻¹
- kon [6]: 11000 M⁻¹ s⁻¹
- pKd [7]: 6.70
- koff [7]: 0.0039 s⁻¹
- kon [7]: 20000 M⁻¹ s⁻¹
- pKd [8]: 6.21
- koff [8]: 0.011 s⁻¹
- kon [8]: 17000 M⁻¹ s⁻¹
Substance: WD40 repeat protein 5 truncation mutant lacking residues 1-22 (WDR5ΔN) (from UniProt P61964 23-334) (domain or fragment)
